Measured values from US9610320B2, “Surgical applications for BMP binding protein” (THE REGENTS OF THE UNIVERSITY OF CALIFORNIA, priority 2004, dated 2017).

Legend:
[1] = as described in the background; cited from earlier work
[2] = system: Lewis rats; test: Rat posterolateral intertransverse process spinal fusion L4-L5 (Example 6); type: in vivo; conditions: for Fusion Rates: Group 3: collagen plus low-dose rhBMP-2 1 μg, week 8
Experimental: Methods: Three groups of 6 Lewis rats each underwent posterolateral intertransverse process spinal fusion at vertebrae L4-L5 with the application of collagen sponges containing: BBP (500 μg)(Group 1): BBP (500 μg) plus low-dose rhBMP-2 (1 μg) (Group 2); collagen plus low-dose rhBMP-2 (1 μg) (Group 3), Results were compared to historical controls of decortication only (0% fusion) and high-dose rhBMP-2 (3 μg) (100% fusion). All rats underwent post-operative radiography at 2, 4, 6, and 8 weeks. Manual spinal palpation was performed at 8 weeks, the time of sacrifice. Bone formation was assessed in histological sections stained with H&E.

[3] = system: Lewis rats; test: Rat posterolateral intertransverse process spinal fusion L4-L5 (Example 8); type: in vivo
Experimental: Methods: Posterolateral intertransverse process spinal fusion at L4-L5 was performed in five treatment groups of Lewis rats each, and collagen sponges (5×5×13 mm) were implanted into the surgical sites.
Each sponge was placed in a sterile microfuge tube and either a suspension of BBP (500 μg or 1000 μg) in water or sterile water alone was applied. The sponges were allowed to air dry in a tissue culture hood overnight and then placed at −70° C. for an hour and lyophilized overnight. The tubes (with small holes in the top to allow for lyophilization) were placed in autoclave pouches and sealed. The materials were then sterilized by exposure to chloroform vapor for at least 4 hours. Immediately prior to surgery, the pouches were opened and the sponges were removed from the tubes and placed in a second tube containing the designed amount of rhBMP-2 or water. The sponges were able to completely absorb the solution.
The posterolateral intertransverse process spinal fusion at L4-L5 in the rat is a well established procedure in our laboratory 13-17. Briefly, the animal was anesthetized with isofluane and the surgical site was shaved and propped with Betadyne and alcohol. A 3 cm longitudinal midline incision was made through the skin and subcutaneous tissue over L4-L5 down to the lumbodorsal fascia. Then, two separate 2 cm longitudinal paramedial incisions were made in the erector spinae muscles on both sides of L4-L5. The transverse processes of L4-L5 were exposed, cleaned of soft tissue, and decorticated with a high-speed burr. The site was irrigated with saline and the therapeutic test material was placed. The lumbodorsal fascia was closed with 4-0 Prolene (Ethicon, Somerville, N.J.). The skin was closed with 4-0 Prolene and meticulous post-operative care was provided.
Two doses of BBP (500 μg, and 1000 μg) were tested with or without “low dose” (1 μg) rhBMP-2 and the results were compared to the low dose (1 μg) rhBMP-2. These were compared to control groups. Fusion was evaluated by radiology, histology and manual palpation tests. Animals were sacrificed 8 weeks after surgery.
The results of the surgeries were assessed radiologically, histologically, and by manual palpation. Posteroanterior radiographs were obtained using a small parts X-ray cabinet (Faxitron Corp., Wheeling, Ill.) on each animal at 2, 4, 6 and 8 weeks. Radiograms were evaluated by three independent observers employing the following standardized scale: 0: no fusion; 1: incomplete fusion with bone formation present; and 2: complete fusion. The scores from the three observes were added and a total of 5 or 6 was regarded as “fused”. Manual palpation of the spine was performed at the time of sacrifice at 8 weeks. To simulate the gold standard for determining fusion in humans, exploration and manual palpation of the fusion mass were performed after death. The level fused was manually palpated with Adson forceps and compared with the adjacent nonfused levels. Each specimen was graded as fused or non-fused by three independent observers. The spine was designated as “not fused” if any of the three observers graded the spine as not fused. After manual palpation, the specimens were decalcified using standard 10% decalcifying solution HCl (Cal-Ex, Fisher Scientific, Fairlawn, N.J.), washed with running tap water, then transferred to 75% ethanol. Sagittal sections were cut carefully at the level of the transverse process. The specimens were imbedded in paraffin and sections of each specimen obtained. These sections were stained with hematoxylin and eosin. They were evaluated by an independent observer as fused and not fused.
The proportions of subjects in each group judged to be “fused” were compared in sequential two group comparisons with Fisher's exact test using SPSS software. A p score of less than or equal to 0.05 was set for statistical significance.

[4] = system: male Swiss-Weber mice; test: Mouse hindquarter (muscle pouch) ectopic bone formation assay, BBP; type: in vivo
Experimental: (§1) Methods: The osteogenic activity of material was tested using male Swiss-Weber mice aged 8 to 10 weeks were used (Taconic Farms, Germantown, N.Y.). Prior to the assay, the BBP was solublized and lyophilized into 2 mg of atelocollagen. The dried material was placed in a #5 gelatin capsule and sterilized by exposure to chloroform vapor. To conduct the assay, mice were anesthetized using 1% isoflurane delivered in oxygen at 2 l/min through a small animal anesthesia machine (VetEquip, Pleasanton, Calif.). Animals were affixed to a surgery board and the fur over the hindquarters shaved. The skin was cleaned with 70% ethanol and a midline incision made over the spine adjacent to the hindquarters. Blunt dissection with scissors was used to expose the quadriceps muscle on one side. A small pouch was made in the muscle using the point of scissors and the #5 capsule containing the test material was inserted into the pouch. The skin was then closed with three 11 mm Michel surgical clips and the animal returned to its cage for monitoring.
After 21 days the animals were killed and the hindquarter removed. Radiological examination of the specimens was accomplished using a small parts X-Ray cabinet (Faxitron, Wheeling, Ill.). For quantization of bone formation, bone area and the bone mineral content (BMC) of an area of interest encompassing the site of ectopic bone formation was determined using a PIXImus2 small animal densitometer (GE Lunar, Madison, Wis.). Specimens were then placed in buffered formalin and submitted for routine processing for histological examination.
Various amounts of rhBMP-2 and BBP were combined and prepared for implantation. All possible combinations of the following amounts were used in pilot studies, rhBMP-2: 0 μg, 0.05 μg, 0.5 μg, 5 μg, and 50 μg; BBP: 0 μg, 50 μg, and μg 500 mg. Samples of 5 μg of rhBMP-2 were used in more extensive subsequent studies because that amount consistently produced an amount of ectopic bone that was neither too large nor too small for reliable analysis.

[5] = system: Lewis rats; test: Rat posterolateral intertransverse process spinal fusion L4-L5 (Example 7); type: in vivo
Experimental: Methods: Five groups of 50 Lewis rats each underwent posterolateral intertransverse process spinal fusion at vertebrae L4-L5 with implanted: BBP (500 μg) (Group 1); BBP (1000 μg) (Group 2), collagen plus low dose BMP-2 (1 μg) (Group 3), BBP (500 μg) plus low dose BMP (1 μg) (Group 4) and BBP (1000 μg) plus low dose BMP (1 μg) (Group 5). Control groups included a negative group (decortication) and positive control group (collagen plus 3 μg BMP).
All rats underwent post-operative radiography at 2, 4, 6, and 8 weeks. Manual spinal palpation was performed at 8 weeks, after the time of sacrifice. Bone formation was assessed in histological sections stained with H&E.

[6] = system: mice; test: Mouse hindquarter ectopic bone formation assay, human BBP; type: in vivo; conditions: rhBMP-2 5 μg alone, 4 weeks, DEXA
Experimental: as §1
After 21 days the animals were killed and the hindquarter removed. […] For quantization of bone formation, bone area and the bone mineral content (BMC) of an area of interest encompassing the site of ectopic bone formation was determined using a PIXImus2 small animal densitometer (GE Lunar, Madison, Wis.). […]

[7] = low dose BMP-2 only (1 μg rhBMP-2)
[8] = low dose BMP-2 only (1 μg rhBMP-2), 8th week
[9] = 5 μg rhBMP-2, BBP 0 μg, 21 days, densitometry

Question: For “rhBMP-2: recombinant human BMP-2, bone morphogenetic protein”, which half-life [1] is on record?
Answer: only a few hours

Question: And the “Fusion Rates” value [2]?
Answer: 20%

Question: And the “Fusion Rates” value ([2]; listed as BMP)?
Answer: 40%

Question: And the fusion ([2]; historical control, high-dose rhBMP-2 3 μg)?
Answer: 100%

Question: And the “radiological examination, fused, Week 8th” value ([3]; control group, high dose BMP-2 only (10 μg rhBMP-2))?
Answer: 100%

Question: And the “Manual Palpation, fused” value ([3]; control group, high dose BMP-2 only, 8th week)?
Answer: 100%

Question: What about the “radiological examination, fused, Week 2nd” value [3, 7] of the same substance?
Answer: 0%

Question: What about the “radiological examination, fused, Week 4th” value [3, 7] of the same substance?
Answer: 20%

Question: And the “radiological examination, fused, Week 6th” value [3, 7]?
Answer: 30%

Question: What about the “radiological examination, fused, Week 8th” value [3, 7] of the same substance?
Answer: 40%

Question: What about the “Histology, fused” value [3, 8] of the same substance?
Answer: 40%

Question: And the “Manual Palpation, fused” value [3, 8]?
Answer: 40%

Question: And the “histological section finding (FIG. 18)” value ([3]; low dose rhBMP-2 (1 μg), 8 weeks)?
Answer: immature bone bridging the cortical matured bridging bony parts

Question: And the “anterior-posterior radiograph finding at L4-L5 (FIG. 16)” value ([3]; rhBMP-2 (1 μg))?
Answer: pseudoarthritis at right anno fusion at left

Question: And the “Bone Area” value [4, 9]?
Answer: 0.089 ± 0.0336 cm^2

Question: What about the “Bone Mineral Content” value [4, 9] of the same substance?
Answer: 0.00189 ± 0.00084 g

Question: And the “histology day 9 (FIG. 8A)” value ([4]; 5 μg rhBMP-2 alone, 9 days)?
Answer: earlier stages of inflammation and mesodermal cell proliferation

Question: And the “fusion by manual palpation” value ([5]; Group 3: collagen plus low dose BMP-2 1 μg, week 8)?
Answer: 40%

Question: And the fusion rate ([5]; historical positive control, full dose BMP (collagen plus 3 μg BMP))?
Answer: 100%

Question: And the “Mean BMC content” value [6]?
Answer: 0.00775 g
